Literature values, collected in US20230270982A1, “DEVICES FOR REGIO-SPECIFIC RELEASE OF CARRIED DRUG AT ILEOCECAL REGION” (Teva Pharmaceutical Industries Ltd., priority 2020, published 2023).

Conditions: standard oral dosage form targeted to the upper GI tract

## esterified levodopa [eLD]
  improvement in systemic exposure compared to LD: no significant improvement
